From patent publication US12454546B2, “Inotodiol ester derivative precursor drug” (CARBOEXPERT INC., priority 2020, dated 2025)

What was measured:
[1] = Table 3; solvent not given
[2] = distilled water, 30° C., 3 hours, supernatant filtered 0.45 μm

Substance	Concentration (solubility) [1] [mg/mL]	Concentration (solubility in water) [2] [mg/mL]
inotodiol oleate ester	>1000	–
inotodiol succinate ester	–	0.00271 ± 0.00025
